Results on two molecules are retold here after the NIST ThermoML archive (doi:10.1016/j.jct.2013.01.005).

The nature of this series: activity coefficient (dimensionless); of the first substance listed, at infinite dilution; xn = mol fraction of the nth substance listed. The following applies: 101 kPa, Liquid, Chromatography, x1 = 0.

± gives the expanded uncertainty stated by the source.

Turning to `CCCCOCCCC` [dibutyl ether] + CCCCC[N+]1(C)CCCCC1.O=S(=O)([N-]S(=O)(=O)C(F)(F)F)C(F)(F)F, the activity coefficient by setting is: (308.15 K) 8.04 ± 0.55; (318.15 K) 7.79 ± 0.53; (328.15 K) 7.5 ± 0.51; (338.15 K) 7.29 ± 0.5; (348.15 K) 7.17 ± 0.49; (358.15 K) 6.94 ± 0.47.

Take `CCCCOCCCC` [dibutyl ether] + CCCCCC[N+]1(C)CCCCC1.O=S(=O)([N-]S(=O)(=O)C(F)(F)F)C(F)(F)F: the activity coefficient (308.15 K) is 6.38 ± 0.43; the activity coefficient (318.15 K) turned out to be 6.25 ± 0.43; the activity coefficient (328.15 K) was determined as 6.08 ± 0.41; the activity coefficient (338.15 K) is 5.96 ± 0.41; the activity coefficient (348.15 K) worked out at 5.81 ± 0.4; the activity coefficient (358.15 K) was 5.74 ± 0.39.
